Usually inhibition stands for the change of the read-out against control, counted positive when it falls.

Sequences of proteins named here, by UniProt entry; tags and fusion partners are left off.
UniProt P19174, whole entry: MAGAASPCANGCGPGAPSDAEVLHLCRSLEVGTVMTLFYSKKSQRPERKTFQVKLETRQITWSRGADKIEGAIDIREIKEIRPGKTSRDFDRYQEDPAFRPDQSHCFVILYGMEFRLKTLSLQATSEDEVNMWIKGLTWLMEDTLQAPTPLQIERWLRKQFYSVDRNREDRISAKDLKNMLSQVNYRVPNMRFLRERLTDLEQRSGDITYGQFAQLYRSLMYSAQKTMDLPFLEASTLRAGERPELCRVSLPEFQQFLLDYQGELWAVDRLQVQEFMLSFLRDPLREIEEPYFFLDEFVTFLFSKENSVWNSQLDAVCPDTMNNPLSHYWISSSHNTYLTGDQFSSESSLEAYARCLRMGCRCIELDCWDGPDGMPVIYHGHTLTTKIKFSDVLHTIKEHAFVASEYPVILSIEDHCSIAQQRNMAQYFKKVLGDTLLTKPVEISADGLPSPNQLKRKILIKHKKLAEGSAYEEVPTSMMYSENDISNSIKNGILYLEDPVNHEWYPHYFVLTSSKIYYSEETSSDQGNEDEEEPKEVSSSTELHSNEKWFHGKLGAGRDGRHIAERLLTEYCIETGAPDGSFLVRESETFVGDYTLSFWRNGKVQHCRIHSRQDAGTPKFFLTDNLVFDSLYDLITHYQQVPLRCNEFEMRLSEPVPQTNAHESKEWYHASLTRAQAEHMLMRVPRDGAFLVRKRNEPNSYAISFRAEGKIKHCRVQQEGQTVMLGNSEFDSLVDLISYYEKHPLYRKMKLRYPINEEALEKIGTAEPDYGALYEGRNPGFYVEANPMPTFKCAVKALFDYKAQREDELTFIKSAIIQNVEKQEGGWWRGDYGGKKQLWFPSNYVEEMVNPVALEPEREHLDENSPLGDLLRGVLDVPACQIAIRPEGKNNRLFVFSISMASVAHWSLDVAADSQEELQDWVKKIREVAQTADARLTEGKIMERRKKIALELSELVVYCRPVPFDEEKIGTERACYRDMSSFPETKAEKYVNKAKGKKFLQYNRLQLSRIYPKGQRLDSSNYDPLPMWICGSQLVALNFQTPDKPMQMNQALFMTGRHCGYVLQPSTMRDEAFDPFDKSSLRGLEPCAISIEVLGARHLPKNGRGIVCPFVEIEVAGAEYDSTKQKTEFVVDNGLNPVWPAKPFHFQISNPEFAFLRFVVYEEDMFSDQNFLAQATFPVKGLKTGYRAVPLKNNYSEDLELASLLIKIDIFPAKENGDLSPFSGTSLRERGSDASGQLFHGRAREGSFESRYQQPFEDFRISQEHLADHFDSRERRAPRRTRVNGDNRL

SMILES strings stand for the structures. This is a selection; strong and weak results do not stand in their true shares. The source made the active and inactive calls. Cut-off read from the data, not from the text of the source: active = inhibition above about 9.5%; inactive = the rest.

This experiment concerns the target 1-phosphatidylinositol 4,5-bisphosphate phosphodiesterase gamma-1 (Homo sapiens) (UniProt P19174). Briefly: blockers of human PLCG1 activity – biochemical, fluorescence, purified enzyme, primary screen (AID 720700). As to conditions: purified PLC-gamma1, fluorogenic substrate, at 12.2 µM, stronger effect = higher value.
For `CC(C)(C)OC(=O)N1CCC(N(C(=O)c2ccccc2)c2ccc(Cl)cc2)CC1`, the inhibition was inactive: 3.81%.
The figure for `N#Cc1ccc(C(=O)NCC2(N3CCCCC3)CCCCC2)cc1` is inactive: 1.69%; for `CC(C)(C)n1nnnc1C(c1cccc2ccccc12)N1CCC(n2c(=O)[nH]c3ccccc32)CC1` (stereo not given) it is inactive: -0.45%; for `c1ccc(CN2CCC(Nc3ccccc3)CC2)cc1` it is inactive: -1.23%.
The figure for `C/C(N)=N\P(=O)(Oc1ccccc1)Oc1ccccc1` is inactive: 0.83%; for `Cc1cc(N(CCCl)CCCl)ccc1C=O` it is inactive: 3.6%; for `O=c1[nH]c2ccccc2n1C1CCN(C(c2ccccc2)c2nnnn2C2CCCC2)CC1` (stereo not given) it is inactive: 1%.
Regarding `CCCN1CCC(Nc2cc(OC)cc(OC)c2)CC1`, the inhibition is inactive: -2.99%.
Turning to `CN(C)C1(CNC(=O)c2cccc(C#N)c2)CCCCC1`, the inhibition is inactive: 4.4%.
The result for `COc1ccc(C(=O)NCC2(N3CCOCC3)CCCCC2)cc1OC` reads inactive: 1.89%; that for `O=c1[nH]c2ccccc2n1C1CCN(C(c2ccnc3ccccc23)c2nnnn2C2CCCC2)CC1` (stereo not given), inactive: 4.92%; that for `O=c1[nH]c2ccccc2n1C1CCN(C(c2cccs2)c2nnnn2C2CCCCC2)CC1` (stereo not given), inactive: 4.54%.
`NC(=O)C1(Nc2ccccc2)CCN(Cc2ccccc2)CC1`: the inhibition was inactive: -1.16%.
The figure for `O=C(NCC1(N2CCOCC2)CCCCC1)c1cc(Br)ccc1Cl` is inactive: 1.98%; for `CCCCn1nnnc1C(c1ccccc1)N1CCC(n2c(=O)[nH]c3ccccc32)CC1` (stereo not given) it is inactive: -1.3%; for `COc1cc(C(=O)NCC2(N3CCOCC3)CCCCC2)cc(OC)c1C` it is inactive: 0.35%.
The figure for `CCCCn1nnnc1C(c1cccc(OC)c1OC)N1CCC(n2c(=O)[nH]c3ccccc32)CC1` (stereo not given) is inactive: 1.57%; for `O=C(OC1CN2CCC1CC2)C1c2ccccc2C=Cc2ccccc21` (stereo not given) it is inactive: -1.3%; for `O=c1[nH]c2ccccc2n1C1CCN(C(c2cccs2)c2nnnn2C2CCCC2)CC1` (stereo not given) it is inactive: 2.34%.
The result for `N/C(=N\O)c1c(N)no[n+]1[O-]` reads inactive: -2.36%.
`COc1cccc(C(c2nnnn2C(C)(C)C)N2CCC(n3c(=O)[nH]c4ccccc43)CC2)c1OC` (stereo not given): the inhibition was inactive: 0.29%.
The figure for `CCOC(=O)N1CCC(Nc2ccc(C)cc2)CC1` is inactive: -3.53%; for `CCCOc1ccc(C(=O)NCC2(N(C)C)CCCCC2)cc1` it is inactive: -0.49%; for `O=c1[nH]c2ccccc2n1C1CCN(C(c2cc3ccccc3o2)c2nnnn2C2CCCC2)CC1` (stereo not given) it is inactive: 1.17%.
With `CC(C)(C)OC(=O)N1CCC(Nc2ccccc2)CC1`, the inhibition was inactive: -0.91%.
The result for `NN(c1ccccc1)C1CCN(CCc2ccccc2)CC1` reads inactive: -0.9%.
The figure for `O=C(O)C1(Nc2ccccc2)CCN(Cc2ccccc2)CC1` is inactive: -1.15%.
Consider `CCOc1ncccc1C(=O)NCC1(N2CCOCC2)CCCCC1`, for which the inhibition is inactive: -1.71%.
The figure for `CN1CCC(Nc2ccc(F)c(Cl)c2)CC1` is inactive: 1.76%; for `CN1CCC(Nc2ccc(Cl)cc2)CC1` it is inactive: 1.38%.
Take `CCC(CO)(C(=O)OC1CN2CCC1CC2)c1ccccc1` (stereo not given): the inhibition is inactive: 4.11%.
The figure for `COc1cccc(C(=O)N(c2cc(C)cc(C)c2)C2CCN(C(=O)OC(C)(C)C)CC2)c1` is inactive: 0.22%; for `COc1cccc(C(c2nnnn2C2CCCC2)N2CCC(n3c(=O)[nH]c4ccccc43)CC2)c1OC` (stereo not given) it is inactive: 3.65%.
Regarding `COc1cc(OC)cc(C(=O)NCC2(N3CCOCC3)CCCCC2)c1`, the inhibition was inactive: 1.14%.
`Cc1ccc(NC2(C#N)CCN(Cc3ccccc3)CC2)cc1`: the inhibition is inactive: 6.04%.
The result for `Cc1ccc(C(=O)NCC2(N3CCCCC3)CCCCC2)o1` reads inactive: -0.02%; that for `Fc1ccccc1NC1CCN(Cc2ccccc2)CC1`, inactive: 5.68%; that for `O=c1[nH]c2ccccc2n1C1CCN(C(c2ccnc3ccccc23)c2nnnn2C2CCCCC2)CC1` (stereo not given), inactive: 7.85%.
As to `COc1cc(OC)cc(C(=O)NCC2(N3CCCCC3)CCCCC2)c1`, the inhibition is inactive: -0.07%.
The figure for `CC(=O)N(c1ccccc1)C1CCNCC1` is inactive: -1.43%.
The figure for `COc1cccc(C(c2nnnn2C2CCCCC2)N2CCC(n3c(=O)[nH]c4ccccc43)CC2)c1OC` (stereo not given) is inactive: 4.35%; for `CCC(c1nnnn1C1CCCCC1)N1CCC(n2c(=O)[nH]c3ccccc32)CC1` (stereo not given) it is active: 9.91%; for `O=C(NCC1(N2CCCCC2)CCCCC1)c1ccco1` it is inactive: -3.82%.
As for `Cn1c(=O)[nH]cc(N(CCCl)CCCl)c1=O`, the inhibition is inactive: -1.28%.
For the compound `CN(C)c1ccc(C(=O)NCC2(N3CCCCC3)CCCCC2)cc1`, the inhibition was inactive: -2.53%.
For `Cc1ccccc1NC1(C#N)CCN(Cc2ccccc2)CC1`, the inhibition is inactive: 0.32%.
Turning to `CC(C)(C)n1nnnc1C(c1ccnc2ccccc12)N1CCC(n2c(=O)[nH]c3ccccc32)CC1` (stereo not given), the inhibition is inactive: -0.29%.
As to `CCN1CCC(Nc2cccc(F)c2)CC1`, the inhibition is inactive: 4.73%.
The result for `COc1ccc(C(c2nnnn2C2CCCCC2)N2CCC(n3c(=O)[nH]c4ccccc43)CC2)cc1` (stereo not given) reads inactive: -0.5%.
Take `O=C(NCC1(N2CCCCC2)CCCCC1)c1ccc(F)cc1`: the inhibition was inactive: 1.86%.
The figure for `CCCCOc1ccc(C(=O)NCC2(N3CCOCC3)CCCCC2)cc1` is inactive: 4.18%; for `O=P1(N(CCCl)CCCl)SCCCS1` it is inactive: 3.08%.
The result for `CCCCn1nnnc1C(c1cc2ccccc2o1)N1CCC(n2c(=O)[nH]c3ccccc32)CC1` (stereo not given) reads inactive: 0.75%; that for `CCOC(=O)N1CCC(Nc2ccc(F)cc2)CC1`, inactive: 3.16%; that for `COc1ccc(NC2CCN(CCc3ccccc3)CC2)c(OC)c1`, inactive: -1.39%.

(Values after PubChem BioAssay AID720700 (The Scripps Research Institute Molecular Screening Center, 2013).)
